This is a selection; strong and weak results do not stand in their true shares. Calls of active or inactive are those of the source.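 How the source made its calls: active means compounds whose plate-normalised and pattern-corrected inhibition of the luciferase reporter signal at the single screening dose is 50% or more; inactive means the rest.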
Test: inhibitors of TROY-driven NF-kB signaling, primary screen, Q293 LMP1-TROYcd cells, NF-kB luciferase, uHTS (AID 1347056)
Settings: Q293 LMP1-TROYcd NF-kB luciferase reporter, 4 h; at 10 µM; stronger effect = higher value
With `CC1=C2N=C(C=C3N=C(C(C)=C4[N-][C@@](C)([C@@H]5N=C1[C@](C)(CCC(=O)NC[C@@H](C)OP(=O)([O-])O[C@H]1[C@@H](O)[C@@H](n6cnc7cc(C)c(C)cc76)O[C@@H]1CO)[C@H]5CC(N)=O)[C@@](C)(CC(N)=O)[C@@H]4CCC(N)=O)[C@@](C)(CC(N)=O)[C@@H]3CCC(N)=O)C(C)(C)[C@@H]2CCC(N)=O.[C-]#N.[Co+3]` the inhibition was inactive: -14.7%.

— PubChem BioAssay AID1347056 (Sanford-Burnham Center for Chemical Genomics, 2019)
